Data on two compounds can be found in article PMC10641814 (Journal of Medicinal Chemistry, 2023).

The chains behind the UniProt entries cited, without tags or fusion partners.
UniProt P50406, whole entry: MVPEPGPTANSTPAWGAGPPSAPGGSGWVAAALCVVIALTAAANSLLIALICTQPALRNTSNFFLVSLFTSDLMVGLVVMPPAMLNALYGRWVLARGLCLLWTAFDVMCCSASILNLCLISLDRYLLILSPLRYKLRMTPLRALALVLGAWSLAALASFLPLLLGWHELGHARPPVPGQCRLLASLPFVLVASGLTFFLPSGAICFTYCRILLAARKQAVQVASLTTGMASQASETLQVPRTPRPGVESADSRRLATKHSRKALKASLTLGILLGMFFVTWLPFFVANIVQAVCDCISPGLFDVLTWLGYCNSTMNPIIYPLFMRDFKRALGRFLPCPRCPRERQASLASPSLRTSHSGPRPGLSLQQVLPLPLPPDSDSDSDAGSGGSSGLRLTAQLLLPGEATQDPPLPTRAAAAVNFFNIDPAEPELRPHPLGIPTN

Series [1] deals with T1, 5-HT6R (Homo sapiens, UniProt P50406). The following applies: NG108-15 cells, 1 μM, 24 h.
Series [2] deals with T1, 5-HT6R. The following applies: NG108-15 cells transiently expressing human 5-HT6R.
Series [3] in a line: Preliminary pharmacokinetics in male Wistar rats, plasma and brain. The following applies: rat.

Consider `O=S(=O)(c1ccccc1)c1cnc2c(N3CCNCC3)cccc2c1` [Intepirdine, reference compound], for which the “neurite length (5-HT6R constitutive activity at Cdk5 signaling)” value at 5-HT6R [1] is recorded as “inhibit the Cdk5-induced neurite growth”. For the same compound, at 5-HT6R [2], the “effect on basal cAMP levels (5-HT6R constitutive activity at Gs signaling)” value was “inhibited basal cAMP production”.
Compound `Cl.Clc1cccc(Cn2ccc3c(N4CCNCC4)nc4ccccc4c32)c1` [PZ-1922, 1-(3-Chlorobenzyl)-4-(piperazin-1-yl)-1H-pyrrolo[3,2-c]quinoline Hydrochloride] had a C0 in series [3] (male, Wistar, in vivo, iv, 3 mg/kg) of 0.244 µg/mL. In addition, the C0 initial concentration in series [3] (3 mg/kg intravenous, brain) was 293.6 ng/g. In the series on adrenergic α1R, the “adrenergic alfa1 % inhibition at 1 microM” value was 1%.
